# In patent US20180148514A1, “MULTIVALENT MEDITOPES, MEDITOPE-BINDING ANTIBODIES AND USES THEREOF” (City of Hope, priority 2014, published 2018):
# Experiments:
# [1] = test system: HER2-paGFP in MDA-MB-468 cells; experiment: PC-PALM super-resolution imaging of HER2-paGFP distribution; format: cell-based; settings: 10 nM trastuzumab, 10 minute incubation, Her2-paGFP transfected MDA-MB-468
# Method: Cells were plated on clean and coated coverslips. Her2-paGFP was transiently transfected into MDA-MB-453 (3 ug of DNA, Fugine HD transfection reagent, 48 h) and MDA-MB-468 (2 ug DNA, JetPrime transfection reagent, 24 h or 48 h) cells. Cells were incubated with 10 nM trastuzumab for 10 min, washed, fixed as described hereinabove and imaged. PC-PALM was used to define the distribution of Her2.
# Cells were assessed at the steady state (without addition of antibody) or following incubation for 10 minutes with trastuzumab which was not meditope-enabled).
# In another study, the effects were compared to those observed following incubation with a multivalent meditope in combination with meditope-enabled antibody. The HER2-paGFP was expressed in MDA-468 cells as described above. Cells were incubated with 10 nM meditope-enabled Trastuzumab v2.0 with a heavy chain of SEQ ID NO: 9 and a light chain is the sequence of SEQ ID NO: 6 with 83E at 37° C. for 10 min. Cells were quickly washed once with pre-warmed (37° C.) media and then incubated with fresh 10 nM tetravalent meditope (M4Fc) at 37° C. for two different time points (3 min and 10 min).
# MDA-MB-468 cells = experiment: Confocal/fluorescent microscopy of cetuximab with MFC or M4FC; format: cell-based
# Method: Effects on the endocytic process following incubation with meditope-enabled antibodies alone and with multivalent meditopes were assessed by confocal microscopy. Specifically, the effects a bivalent meditope Fc (MFC) and the tetravalent meditope-Fc described above (M4FC) were assessed by fluorescent microscopy. Alexa Fluor-labeled cetuximab without or in combination with each of these meditopes was co-incubated with MDA-MB-468 cells for 15 minutes, 1 hour and 40 minutes, 3 hours and 35 minutes, and 6 hours and 35 minutes. At the end of the incubation, the cells were fixed by formaldehyde, and where appropriate, Alexa Fluor-labeled antibodies were applied to stain for specific cellular markers before cover slips were mounted and the samples analyzed.
Substance,average HER2 proteins per cluster [1] [proteins per cluster],brightness of dots (MDA-MB-468 cells) [lumin/pixel^2],"number of dots (punctates), ImagePro count (MDA-MB-468 cells) [dots]"
"trastuzumab: anti-HER2 antibody, not meditope-enabled [reference compound]",6,–,–
cetuximab: monoclonal anti-EGFR antibody with meditope-binding site; Alexa Fluor-labeled in microscopy [reference compound],–,100,37
